Assay results reported in the NIST ThermoML archive (doi:10.1016/j.fluid.2013.11.031).

Assay: xn = mol fraction of the nth substance listed
Details: Liquid, Vibrating tube method

CCCCOCCCC [dibutyl ether] + CC(C)O
mass density [kg/m3]
Details	x1 = 0.1499	x1 = 0.3251	x1 = 0.508	x1 = 0.675	x1 = 0.8477
293.15 K, 100 kPa	780	775.7	772.8	770.6	769
293.15 K, 10000 kPa	788.3	784.1	781.2	778.9	777.3
293.15 K, 20000 kPa	795.9	791.7	788.8	786.5	784.9
293.15 K, 30000 kPa	802.7	798.5	795.7	793.4	791.8
293.15 K, 40000 kPa	809	804.8	802.1	799.9	798.3
293.15 K, 50000 kPa	814.9	810.7	808.1	805.8	804.2
293.15 K, 60000 kPa	820.4	816.3	813.6	811.4	809.7
293.15 K, 70000 kPa	825.7	821.6	818.9	816.7	815.1
293.15 K, 80000 kPa	830.7	826.6	824	821.8	820.1
293.15 K, 90000 kPa	835.4	831.3	828.7	826.5	824.8
293.15 K, 100000 kPa	840.2	836.1	833.5	831.3	829.7
293.15 K, 110000 kPa	844.3	840.3	837.7	835.5	833.9
293.15 K, 120000 kPa	848.5	844.5	841.9	839.7	838.1
293.15 K, 130000 kPa	852.5	848.5	845.9	843.7	842.1
293.15 K, 140000 kPa	856.4	852.4	849.9	847.6	846.1
313.15 K, 100 kPa	762.2	757.8	754.8	752.7	751.4
313.15 K, 10000 kPa	771.5	767.1	764.1	762	760.6
313.15 K, 20000 kPa	779.8	775.6	772.6	770.4	769
313.15 K, 30000 kPa	787.5	783.3	780.4	778.2	776.8
313.15 K, 40000 kPa	794.4	790.3	787.3	785.2	783.8
313.15 K, 50000 kPa	800.9	796.8	794	791.8	790.4
313.15 K, 60000 kPa	806.9	802.9	800.1	797.9	796.5
313.15 K, 70000 kPa	812.7	808.8	805.9	803.8	802.4
313.15 K, 80000 kPa	818	814.1	811.3	809.1	807.7
313.15 K, 90000 kPa	823.1	819.3	816.5	814.3	812.9
313.15 K, 100000 kPa	827.8	824	821.2	819	817.6
313.15 K, 110000 kPa	832.5	828.7	825.9	823.8	822.3
313.15 K, 120000 kPa	837	833.2	830.4	828.3	826.9
313.15 K, 130000 kPa	841.2	837.4	834.7	832.5	831.1
313.15 K, 140000 kPa	845.4	841.6	838.9	836.7	835.3
